From patent US11352350B2, “IRAK degraders and uses thereof” (Kymera Therapeutics, Inc., priority 2018, dated 2022)

The chains behind the UniProt entries cited, without tags or fusion partners.
UniProt Q9NWZ3, whole entry: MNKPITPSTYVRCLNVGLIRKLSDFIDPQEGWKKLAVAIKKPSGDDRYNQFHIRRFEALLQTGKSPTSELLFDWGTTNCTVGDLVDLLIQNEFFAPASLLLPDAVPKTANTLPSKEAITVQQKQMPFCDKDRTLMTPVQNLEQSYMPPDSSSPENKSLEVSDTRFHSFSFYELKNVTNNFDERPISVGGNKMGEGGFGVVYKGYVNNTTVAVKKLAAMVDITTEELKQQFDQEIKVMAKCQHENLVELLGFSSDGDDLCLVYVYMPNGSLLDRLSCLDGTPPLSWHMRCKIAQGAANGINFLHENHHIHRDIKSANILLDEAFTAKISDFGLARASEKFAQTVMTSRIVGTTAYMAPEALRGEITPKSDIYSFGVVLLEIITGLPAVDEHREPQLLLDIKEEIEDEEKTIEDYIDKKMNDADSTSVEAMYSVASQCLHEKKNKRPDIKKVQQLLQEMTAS

Tests used:
[1] = biological target: T1, IRAK4 (Homo sapiens (Human), UniProt Q9NWZ3); test: IRAK4 MSD degradation in OCI-LY10; assay type: cell-based; details: read-out: IRAK4 MSD degradation in OCI-LY10 at 4 hrs: Average external-Abs DC50, OCI-LY10, 4 hrs
[2] = system: OCI-LY10; test: CTG Cell Viability Assay - OCI-LY10; details: read-out: CTG Cell Viability Assay - OCI-LY10: Average external-IC50; OCI-LY10, 4 days
[3] = biological target: T1, IRAK4; test: IRAK4 degradation in human whole blood monocyte - flow cytometry; details: read-out: IRAK4 degradation in whole blood monocyte-Flow cytometry: Average external Abs IC50
[4] = biological target: T1, IRAK4; test: IRAK4 degradation in human whole blood lymphocyte - flow cytometry; details: read-out: IRAK4 degradation in whole blood lymphocyte-Flow cytometry: Average external Abs IC50
[5] = system: TNFα; test: Human whole blood LPS TNFα assay; details: read-out: IRAK4 human whole blood LPS TNFa inhibition: Average external-IC50, 20 h pretreatment, LPS 5 h

| SMILES | DC50 [1] | IC50 [2] | IC50 [3] | IC50 [4] | IC50 [5] |
| --- | --- | --- | --- | --- | --- |
| CC(C)c1nn([C@H]2CC[C@H](CN(C)CCOCCOCCCc3cccc4c3n(C)c(=O)n4C3CCC(=O)NC3=O)CC2)cc1NC(=O)c1coc(-c2ccnc(NCC3CC3)c2)n1 (some centres unmarked) | 100 to 1000 nM | – | – | – | – |
| CN(CCOCCNCc1cccc2c1n(C)c(=O)n2C1CCC(=O)NC1=O)C(=O)[C@H]1CC[C@H](n2cc(NC(=O)c3coc(-c4ccnc(NCC5CC5)c4)n3)c(C(F)F)n2)CC1 (some centres unmarked) | < 10 nM | > 1000 nM | – | – | – |
| Cn1c(=O)n(C2CCC(=O)NC2=O)c2cccc(CCCOCCCNC[C@H]3CC[C@H](n4cc(NC(=O)c5coc(-c6ccnc(NCC(F)(F)F)c6)n5)c(C(N)=O)n4)CC3)c21 (some centres unmarked) | < 10 nM | > 1000 nM | < 50 nM | 100 to 500 nM | > 1000 nM |
